Assay [1] addresses T1, human kappa opioid receptors (Homo sapiens, UniProt P41145).
T1 construct: HA; expressed in transfected cells; host or cells: Chinese hamster ovary (CHO) cells, virally transfected
The assay can be described thus: [35S]GTPγS binding (G protein coupling) assay, antagonism of U69,593. In kind it is biochemical. The settings on record: CHO-hKOR membranes, 100 nM U69,593, n ≥ 3; read-out: IC50 (nM) ± S.E.M. [35S]GTPγS. On the procedure: (§1) Chinese hamster ovary (CHO) cells were virally transfected to express HA-tagged recombinant human kappa opioid receptors (CHO-hKOR cell line) and maintained in DMEM/F-12 media (Invitrogen) supplemented with 10% fetal bovine serum, 1% penicillin/streptomycin, and 500 μg/ml geneticin as described in Schmid, C. L.; Streicher, J. M.; Groer, C. E.; Munro, T. A.; Zhou, L.; Bohn, L. M. Functional selectivity of 6′-guanidinonaltrindole (6′-GNTI) at kappa opioid receptors in striatal neurons. […] A DiscoveRx PathHunter™ U2OS cell line expressing βarrestin2 and hKOR (U2OS-hKOR-βarrestin2-DX) was purchased from DiscoveRx Corporation (Fremont, Calif.) and maintained MEM with 10% fetal bovine serum, 1% penicillin/streptomycin, 500 μg/ml geneticin and 250 μg/ml hygromycin B. All cells were grown at 37° C. (5% CO2 and 95% relative humidity).
Briefly, cells were serum starved for 1 hour and membranes were prepared. Each reaction was performed at room temperature and contained 15 μg of membrane protein, 40 μM GDP, ˜0.1 nM [^35S]GTPγS and increasing concentrations of compounds in assay buffer (50 mM Tris-HCl, pH 7.4, 100 mM NaCl, 5 mM MgCl2, 1 mM EDTA). Directly after the addition of test compounds, 100 nM U69,593 was added to yield a total volume of 200 μL. After 1 hour, reactions were quenched by rapid filtration through GF/B filters and radioactivity was counted with a TopCount NXT high throughput screening microplate scintillation and luminescence counter (PerkinElmer Life Sciences).
(§2) All compounds were run in parallel assays in 2-4 replicates per individual experiment. All studies were performed n≥3 independent experiments in multiple replicates. For determination of antagonist inhibition, each individual experiment was normalized to the percentage of maximal U69,593 stimulation. The efficacy and potency values were obtained from the averages of the nonlinear regression analysis performed on each individual curve and are reported as the mean±S.E.M.

Sequences of proteins named here, by UniProt entry; tags and fusion partners are left off. A change or cut given only in a name is not applied to a line headed by its entry.
UniProt P41145: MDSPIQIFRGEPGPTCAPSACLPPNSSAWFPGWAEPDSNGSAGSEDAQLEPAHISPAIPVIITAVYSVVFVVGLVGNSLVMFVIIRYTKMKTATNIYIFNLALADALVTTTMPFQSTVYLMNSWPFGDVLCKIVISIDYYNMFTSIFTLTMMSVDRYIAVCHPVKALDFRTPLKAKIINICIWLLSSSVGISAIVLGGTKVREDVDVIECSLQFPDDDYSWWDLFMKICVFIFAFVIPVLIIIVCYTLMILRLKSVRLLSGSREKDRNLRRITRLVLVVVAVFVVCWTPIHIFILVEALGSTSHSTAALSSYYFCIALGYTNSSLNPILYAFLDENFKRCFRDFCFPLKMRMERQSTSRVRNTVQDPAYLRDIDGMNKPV

Assay [2] deals with T1, human kappa opioid receptors. Briefly: In-cell western ERK1/2 phosphorylation, inhibition of U69,593 induced ERK phosphorylation. To be noted: hKOR-CHO cells, 100 nM U69,593, n ≥ 3; read-out: IC50 (nM) ± S.E.M. ERK. The class given is cell-based. On the procedure: as §1
Briefly, hKOR-CHO cells were plated in 384-well plate at 15,000 cells per well and incubated at 37° C. overnight. After an hour serum starve, cells were treated with compound followed by the addition of 100 nM U69,593 and a 10 minute incubation at 37° C. Cells were fixed, permeabilized, blocked, and stained with primary antibodies for phosphorylated ERK1/2 and total-ERK1/2 (1:300 and 1:400, respectively) at 4° C. overnight. Cells then incubated with Li-Cor secondary antibodies (anti-rabbit IRDye800CW, 1:500; anti-mouse IRDye680LT, 1:1500) and imaged with the Odyssey Infrared Imager (Li-Cor Biosciences, Lincoln, Nebr.) at 700 and 800 nm.
as §2

The target of the next assay is T2, hKOR (Homo sapiens, UniProt P41145).
T2 construct: host or cells: U2OS (PathHunter U2OS-hKOR-βarrestin2-DX), purchased engineered cell line
The assay can be described thus: βArrestin2 recruitment (DiscoveRx PathHunter) assay. The class given is cell-based. The settings on record: U2OS-hKOR-βarrestin2-DX cells, 1 μM U69,593, n ≥ 3; read-out: IC50 (nM) ± S.E.M. βarr2. On the procedure:
as §1
Briefly, 5,000 cells/well were plated overnight in Opti-MEM containing 1% fetal bovine serum, 1% penicillin/streptomycin. Cells were pretreated with antagonist for 15 min at 37° C. followed by the addition of 1 μM U69,593 and a 90 minute incubation at 37° C. PathHunter™ detection reagent was added and cells incubated at room temperature for 60 minutes. Chemiluminescence was detected using a SpectraMax® M5e Multimode Plate Reader (Molecular Devices). βarrestin2 recruitment assays were also performed using an imaging platform (Cellomics) to visulalize translocation of a fluorescent protein tagged βarrestin2 to the membrane of KOR expressing U2OS cells.
as §2
For orientation: Arrestin recruitment assays detect the binding of arrestin to an activated receptor.

By IC50 is commonly meant the concentration that inhibits the measured activity by half. As for `Cc1ccc(S(=O)(=O)N2CCc3cc(C(=O)NCCN(Cc4ccc(F)cc4)C(C)C)ccc3C2)cc1` [Compound 1d, N-(2-((4-Fluorobenzyl)(isopropyl)amino)ethyl)-2-tosyl-1,2,3,4-tetrahydroisoquinoline-6-carboxamide], the IC50 in assay [1] turned out to be 29.1 ± 7.9 nM; in assay [2], 406 ± 80 nM; at hKOR, 478 ± 110 nM.

Regarding `Cc1ccc(S(=O)(=O)N2CCc3cc(C(=O)NCCN(Cc4ccc(Cl)cc4)C(C)C)ccc3C2)cc1` [Compound 1e, N-(2-((4-Chlorobenzyl)(isopropyl)amino)ethyl)-2-tosyl-1,2,3,4-tetrahydroisoquinoline-6-carboxamide], the IC50 was found to be 10 ± 1.4 nM in assay [1], 400 ± 87 nM in assay [2] and 392 ± 91 nM at hKOR.

As for `Cc1ccc(S(=O)(=O)N2CCc3cc(C(=O)NCCN(Cc4ccc(Br)cc4)C(C)C)ccc3C2)cc1` [Compound 1f, N-(2-((4-Bromobenzyl)(isopropyl)amino)ethyl)-2-tosyl-1,2,3,4-tetrahydroisoquinoline-6-carboxamide], the concentration for half-maximal inhibition (IC50) is 19.7 ± 6.6 nM in assay [1], 258 ± 93 nM in assay [2] and 388 ± 85 nM at hKOR.

Take `Cc1ccc(S(=O)(=O)N2CCc3cc(C(=O)NCCN(Cc4ccc(F)cc4)C(C)(C)C)ccc3C2)cc1` [Compound 1j, N-(2-((4-Fluorobenzyl)(tert-butyl)amino)ethyl)-2-tosyl-1,2,3,4-tetrahydroisoquinoline-6-carboxamide]: the IC50 is 3.7 ± 1.2 nM in assay [1], 76 ± 24 nM in assay [2] and 104 ± 32 nM on hKOR.

For the compound `Cc1cc(C)c(S(=O)(=O)N2CCc3cc(C(=O)NCCN(Cc4ccc(F)cc4)C(C)(C)C)ccc3C2)c(C)c1` [Compound 1k, N-(2-((4-Fluorobenzyl)(tert-butyl)amino)ethyl)-2-(mesitylsulfonyl)-1,2,3,4-tetrahydroisoquinoline-6-carboxamide], the values for the concentration for half-maximal inhibition (IC50) (in assay [1]; in assay [2]; at hKOR) were 85 ± 20 nM, 1200 nM and 880 ± 67 nM, respectively.

For `Cc1ccc(S(=O)(=O)N2CCc3cc(C(=O)NCCN(Cc4ccc(Cl)cc4)C(C)(C)C)ccc3C2)cc1` [Compound 1l, N-(2-((4-Chlorobenzyl)(tert-butyl)amino)ethyl)-2-tosyl-1,2,3,4-tetrahydroisoquinoline-6-carboxamide], the IC50 is 1.6 ± 0.5 nM in assay [1], 107 ± 17 nM in assay [2] and 84 ± 20 nM at hKOR.

For `Cc1ccc(S(=O)(=O)NCc2ccc(C(=O)NCCN(Cc3ccccc3)C(C)C)cc2)cc1` [ML140, reference compound], the results for the 50% inhibitory concentration (IC50) (in assay [1]; in assay [2]; on hKOR) were 138 ± 54 nM, 591 ± 87 nM and 403 nM, respectively.

These data come from US10829453B2, “Antagonists of the kappa opioid receptor” (University of Kansas, priority 2014, dated 2020).
